In US7220720B2, “Melanin-concentrating hormone analogs” (Merk & Co., Inc., priority 2000, dated 2007):
Each block holds one compound with its values, some of them ahead of it.

Sequences of proteins named here, by UniProt entry; tags and fusion partners are left off. A change or cut given only in a name is not applied to a line headed by its entry.
UniProt Q99705: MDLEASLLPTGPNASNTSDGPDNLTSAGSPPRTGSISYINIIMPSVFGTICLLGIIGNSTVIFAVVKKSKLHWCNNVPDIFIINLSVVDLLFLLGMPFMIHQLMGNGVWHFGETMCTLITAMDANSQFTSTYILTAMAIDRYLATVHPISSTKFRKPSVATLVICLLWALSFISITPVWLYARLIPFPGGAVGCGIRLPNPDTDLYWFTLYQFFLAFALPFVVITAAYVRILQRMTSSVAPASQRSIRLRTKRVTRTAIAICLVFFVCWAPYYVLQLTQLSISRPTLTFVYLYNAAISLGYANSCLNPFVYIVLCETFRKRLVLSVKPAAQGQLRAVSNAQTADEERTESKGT

Legend:
[1] = target: T1, human MCH receptor (Homo sapiens, UniProt Q99705); experiment: Radiolabeled MCH-R binding assay: inhibition of [125I]-human MCH (Phe13, Tyr19 substituted) binding to cell membranes (filter or SPA format); parameters: expressed in transfected cells
[2] = target: T1, human MCH receptor; experiment: Aequorin bioluminescence functional assay in 293-AEQ17 cells transfected with human MCH receptor; assay type: cell-based; parameters: expressed in transfected cells; host or cells: 293-AEQ17 (aequorin-expressing HEK-293 reporter line), transient lipofectamine transfection, pcDNA-3 vector; Activity Activation %: concentration or dose not given beside the values
[3] = Table 3, N-methyl-amino acid analogs
[4] = Table 4, position 6 modification

IC50 [1, 4]: 1.2 nM | Activity Activation % [2, 4]: 97% | EC50 [2, 4]: 110 nM
SMILES: CCCC[C@@H](NC(C)=O)C(=O)N[C@H]1CSSC[C@@H](C(N)=O)NC(=O)[C@@H]2CCCN2C(=O)[C@H](CCCNC(=N)N)NC(=O)[C@H](Cc2ccc(O)cc2)NC(=O)[C@H](C(C)C)NC(=O)[C@H](CCCNC(=N)N)NC(=O)CNC(=O)[C@H](CC(C)C)NC(=O)[C@H](CCSC)NC1=O [compound 42]

Activity Activation % [2, 4]: 94%
SMILES: CSCC[C@@H]1NC(=O)[C@@H](NC(=O)[C@@H](CC(N)=O)NC(C)=O)CSSC[C@@H](C(N)=O)NC(=O)[C@@H]2CCCN2C(=O)[C@H](CCCNC(=N)N)NC(=O)[C@H](Cc2ccc(O)cc2)NC(=O)[C@H](C(C)C)NC(=O)[C@H](CCCNC(=N)N)NC(=O)CNC(=O)[C@H](CC(C)C)NC1=O [compound 44]

IC50 [1, 4]: 2.3 nM | Activity Activation % [2, 4]: 93%
SMILES: CSCC[C@@H]1NC(=O)[C@@H](NC(=O)[C@@H](CO)NC(C)=O)CSSC[C@@H](C(N)=O)NC(=O)[C@@H]2CCCN2C(=O)[C@H](CCCNC(=N)N)NC(=O)[C@H](Cc2ccc(O)cc2)NC(=O)[C@H](C(C)C)NC(=O)[C@H](CCCNC(=N)N)NC(=O)CNC(=O)[C@H](CC(C)C)NC1=O [compound 45]

Activity Activation % [2, 4]: 85%
SMILES: CSCC[C@@H]1NC(=O)[C@@H](NC(=O)[C@@H](CCC(=O)O)NC(C)=O)CSSC[C@@H](C(N)=O)NC(=O)[C@@H]2CCCN2C(=O)[C@H](CCCNC(=N)N)NC(=O)[C@H](Cc2ccc(O)cc2)NC(=O)[C@H](C(C)C)NC(=O)[C@H](CCCNC(=N)N)NC(=O)CNC(=O)[C@H](CC(C)C)NC1=O [compound 46]

The next lines start with the compound.

SMILES: CCCC[C@H]1C(=O)N[C@@H](CC(C)C)C(=O)NCC(=O)N[C@@H](CCCNC(=N)N)C(=O)N[C@@H](C(C)C)C(=O)N[C@@H](Cc2ccc(O)cc2)C(=O)N[C@@H](CCCNC(=N)N)C(=O)N2CCC[C@H]2C(=O)N[C@H](C(N)=O)CSSC[C@H](NC(=O)[C@H](CCCNC(=N)N)NC(C)=O)C(=O)N1C [compound 25]
IC50 [1, 3]: 0.16 nM | Activity Activation % [2, 3]: 110% | EC50 [2, 3]: 20 nM

SMILES: CCCC[C@H](NC(C)=O)C(=O)N[C@H]1CSSC[C@@H](C(N)=O)NC(=O)[C@@H]2CCCN2C(=O)[C@H](CCCNC(=N)N)NC(=O)[C@H](Cc2ccc(O)cc2)NC(=O)[C@H](C(C)C)NC(=O)[C@H](CCCNC(=N)N)NC(=O)CNC(=O)[C@H](CC(C)C)NC(=O)[C@H](CCSC)NC1=O [compound 32]
Activity Activation % [2, 4]: 107%

SMILES: CSCC[C@@H]1NC(=O)[C@@H](NC(=O)[C@H]2CCCN2C(C)=O)CSSC[C@@H](C(N)=O)NC(=O)[C@@H]2CCCN2C(=O)[C@H](CCCNC(=N)N)NC(=O)[C@H](Cc2ccc(O)cc2)NC(=O)[C@H](C(C)C)NC(=O)[C@H](CCCNC(=N)N)NC(=O)CNC(=O)[C@H](CC(C)C)NC1=O [compound 43]
Activity Activation % [2, 4]: 96%

SMILES: CCCC[C@@H]1NC(=O)[C@@H](NC(=O)[C@H](CCCNC(=N)N)NC(C)=O)CSSC[C@@H](C(N)=O)NC(=O)[C@@H]2CCCN2C(=O)[C@H](CCCNC(=N)N)NC(=O)[C@H](Cc2ccc(O)cc2)NC(=O)[C@H](C(C)C)NC(=O)[C@H](CCCNC(=N)N)NC(=O)CNC(=O)[C@H](CC(C)C)NC1=O [compound 77]
Activity Activation % ([2]; Table 7, combinations and position 8): 105%
